This assay concerns the target GST-tagged truncated human mutant G2019S LRRK2 (Homo sapiens (Human), UniProt Q5S007, G2019S). The experiment in a line: LRRK2 G2019S Km ATP LanthaScreen Assay. The note with it: LRRKtide substrate, mean IC50 values.
Setting [1] is: read-out: LRRK2 IC50, G2019S LRRK2, 134 μM ATP (Km ATP).
Setting [2] is: LRRK2 IC50, G2019S LRRK2, 134 μM ATP (Km ATP).

By UniProt entry, the sequences of proteins in these tests, tags left out. Residues count along the entry.
UniProt Q5S007, 970-2527 G2019S: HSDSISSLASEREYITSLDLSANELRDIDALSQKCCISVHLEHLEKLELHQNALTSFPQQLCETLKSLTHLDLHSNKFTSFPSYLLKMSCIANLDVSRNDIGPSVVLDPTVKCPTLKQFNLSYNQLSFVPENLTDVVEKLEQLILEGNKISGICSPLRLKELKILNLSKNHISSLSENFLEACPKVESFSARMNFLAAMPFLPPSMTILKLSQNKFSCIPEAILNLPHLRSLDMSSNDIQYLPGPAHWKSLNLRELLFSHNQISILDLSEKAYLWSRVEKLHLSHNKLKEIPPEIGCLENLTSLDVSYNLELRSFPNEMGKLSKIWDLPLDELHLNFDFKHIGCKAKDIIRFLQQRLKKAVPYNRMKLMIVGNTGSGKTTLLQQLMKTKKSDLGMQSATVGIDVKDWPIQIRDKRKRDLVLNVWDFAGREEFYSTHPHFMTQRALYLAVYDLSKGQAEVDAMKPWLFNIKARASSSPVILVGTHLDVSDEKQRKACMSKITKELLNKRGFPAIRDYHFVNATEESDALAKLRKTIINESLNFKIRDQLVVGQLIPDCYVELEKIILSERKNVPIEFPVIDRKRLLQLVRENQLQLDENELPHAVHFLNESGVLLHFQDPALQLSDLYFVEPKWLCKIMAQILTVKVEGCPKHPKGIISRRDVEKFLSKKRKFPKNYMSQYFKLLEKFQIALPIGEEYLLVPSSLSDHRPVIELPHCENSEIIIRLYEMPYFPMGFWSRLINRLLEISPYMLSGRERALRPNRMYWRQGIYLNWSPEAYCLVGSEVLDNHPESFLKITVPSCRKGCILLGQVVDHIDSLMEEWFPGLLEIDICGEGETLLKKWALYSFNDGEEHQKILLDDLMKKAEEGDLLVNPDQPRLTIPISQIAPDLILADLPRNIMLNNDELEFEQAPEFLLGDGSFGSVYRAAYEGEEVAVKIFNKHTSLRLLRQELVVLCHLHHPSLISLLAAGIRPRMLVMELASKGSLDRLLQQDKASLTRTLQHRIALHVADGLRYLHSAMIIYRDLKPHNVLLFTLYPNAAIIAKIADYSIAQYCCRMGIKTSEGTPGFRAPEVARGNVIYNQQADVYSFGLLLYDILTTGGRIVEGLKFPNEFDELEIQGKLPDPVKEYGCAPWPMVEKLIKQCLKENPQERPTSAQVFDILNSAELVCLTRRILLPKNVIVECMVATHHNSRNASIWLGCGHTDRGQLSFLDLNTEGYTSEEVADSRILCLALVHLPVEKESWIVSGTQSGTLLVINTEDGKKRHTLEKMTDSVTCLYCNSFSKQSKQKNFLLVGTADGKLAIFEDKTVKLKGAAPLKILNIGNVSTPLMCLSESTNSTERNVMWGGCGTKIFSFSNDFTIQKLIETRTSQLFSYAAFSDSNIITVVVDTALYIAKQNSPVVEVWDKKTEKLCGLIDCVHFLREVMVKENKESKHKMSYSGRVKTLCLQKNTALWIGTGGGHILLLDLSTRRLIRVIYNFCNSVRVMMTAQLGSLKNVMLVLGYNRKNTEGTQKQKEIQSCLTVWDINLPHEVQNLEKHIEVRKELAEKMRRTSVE

Like-named read-outs stand apart in the source and are kept apart here.

Consider `Clc1cc2cnn(-c3cnn(C4COC4)c3)c2cc1C1CCN(C2COC2)CC1` [Example 2.3], for which the IC50 under setting [1] amounted to 5.2 nM.

Regarding `Cn1cc(-n2ncc3cc(Cl)c(C4CCN(C5CCOC5)CC4)cc32)cn1` (single isomer, unassigned) [Example 14.2-2, (R or S)-5-chloro-1-(1-methyl-1H-pyrazol-4-yl)-6-(1-(tetrahydrofuran-3-yl)piperidin-4-yl)-1H-indazole], the IC50 under setting [2] came out at 2.8 nM.

Under setting [2], `Clc1cc2cnn(-c3cn(C4CC4)nn3)c2cc1C1CCN(C2COC2)CC1` [Example 3.2, 5-chloro-1-(1-cyclopropyl-1H-1,2,3-triazol-4-yl)-6-(1-(oxetan-3-yl)piperidin-4-yl)-1H-indazole] had an IC50 of 4.3 nM.

Consider `Cc1cc2cnn(-c3cnn(C)c3)c2cc1C1CCN(C)C[C@H]1F` (single isomer, unassigned) [Example 21.6-1, (R,R or S,S)-6-(3-fluoro-1-methylpiperidin-4-yl)-5-methyl-1-(1-methyl-1H-pyrazol-4-yl)-1H-indazole], for which the IC50 under setting [1] is 13.7 nM.

`Cn1cc(-n2ncc3cc(Cl)c(C4CC5(C4)CN(C4COC4)C5)cc32)cn1` [Example 28.4, 5-chloro-1-(1-methyl-1H-pyrazol-4-yl)-6-(2-(oxetan-3-yl)-2-azaspiro[3.3]heptan-6-yl)-1H-indazole]: the IC50 under setting [2] amounted to 187 nM.

Consider `FC(F)(F)n1cc(-n2ncc3cc(Cl)c(C4CCN(C5COC5)CC4)cc32)cn1` [Example 2.5], for which the 50% inhibitory concentration (IC50) under setting [1] came to 10.4 nM.

For `Cc1cc2cnn(-c3cnn(C)c3)c2cc1C1CCN(C)C[C@H]1F` (single isomer, unassigned) [Example 21.6-2, (R,R or S,S)-6-(3-fluoro-1-methylpiperidin-4-yl)-5-methyl-1-(1-methyl-1H-pyrazol-4-yl)-1H-indazole], the IC50 under setting [1] worked out at 3.8 nM.

`Cn1cc(-n2ncc3cc(C#N)c(C4CCN(C5(C)COC5)CC4)cc32)cn1` [Example 12.1, 1-(1-methyl-1H-pyrazol-4-yl)-6-(1-(3-methyloxetan-3-yl)piperidin-4-yl)-1H-indazole-5-carbonitrile] displayed an IC50 under setting [2] of 6.3 nM.

In the case of `CC1(N2CCC(c3cc4c(cnn4-c4cnn(CC(F)(F)F)c4)cc3Cl)CC2)COC1` [Example 11.3], under setting [1], the half-maximal inhibitory concentration (IC50) turned out to be 1.3 nM.

`CNC(=O)N1CCC(c2cc3c(cnn3-c3cnn(C)c3)cc2Cl)CC1` [Example 17.1, 4-(5-chloro-1-(1-methyl-1H-pyrazol-4-yl)-1H-indazol-6-yl)-N-methylpiperidine-1-carboxamide] registered an IC50 under setting [2] of 14.5 nM.

As for `Cc1cnc(-n2ncc3cc(Cl)c(C4CCN(C5COC5)CC4)cc32)s1` [Example 2.9], the IC50 under setting [1] stood at 15.7 nM.

In the case of `CCCn1cc(-n2ncc3cc(Cl)c(C4CCN(C5(C)COC5)CC4)cc32)cn1` [Example 11.5], the IC50 under setting [1] worked out at 3.3 nM.

In turn, `CC1(N2CCC(c3cc4c(cnn4-c4cnn(S(=O)(=O)C5CC5)c4)cc3Cl)CC2)COC1` [Example 9.1, 5-chloro-1-(1-(cyclopropylsulfonyl)-1H-pyrazol-4-yl)-6-(1-(3-methyloxetan-3-yl)piperidin-4-yl)-1H-indazole] registered an IC50 under setting [2] of 2.7 nM.

As for `Cc1cc(-n2ncc3ccc(C4(C#N)CC45CC5)cc32)sn1` (centres unmarked) [Example 1.7], the IC50 under setting [1] amounted to 12.2 nM.

On to `CC1(N2CCC(c3cc4c(cnn4-c4cnn(-c5ncccn5)c4)cc3Cl)CC2)COC1` [Example 10.1, 5-chloro-6-(1-(3-methyloxetan-3-yl)piperidin-4-yl)-1-(1-(pyrimidin-2-yl)-1H-pyrazol-4-yl)-1H-indazole], for which, under setting [2], the half-maximal inhibitory concentration (IC50) is < 0.625 nM.

In the case of `N#CC1(c2ccc3cnn(-c4cnn(-c5ccccc5)c4)c3c2)CC12CC2` (centres unmarked) [Example 1.2], under setting [1], the IC50 is 19.9 nM.

Regarding `Cn1cc(-n2ncc3cc(Cl)c(C4CCN(C5COC5)CC4F)cc32)cn1` (single isomer, unassigned) [Example 20.2-2, (R,R or S,S)-5-chloro-6-(3-fluoro-1-(oxetan-3-yl)piperidin-4-yl)-1-(1-methyl-1H-pyrazol-4-yl)-1H-indazole], the IC50 under setting [1] worked out at 5.8 nM.

In the case of `CNC(=O)n1cc(-n2ncc3cc(Cl)c(C4CCN(C5COC5)CC4)cc32)cn1` [Example 5.1, 4-(5-chloro-6-(1-(oxetan-3-yl)piperidin-4-yl)-1H-indazol-1-yl)-N-methyl-1H-pyrazole-1-carboxamide], under setting [2], the IC50 stood at 0.9 nM.

With `CN1CCC(c2cc3c(cnn3-c3cnn(C)c3)cc2Cl)CC1CO` (centres unmarked) [Example 25.5, (4-(5-chloro-1-(1-methyl-1H-pyrazol-4-yl)-1H-indazol-6-yl)-1-methylpiperidin-2-yl)methanol], the IC50 under setting [2] worked out at 9.7 nM.

`C[C@@]1(N2CCC(c3cc4c(cnn4-c4cnn(C56CC(C5)C6)c4)cc3Cl)CC2)COC[C@@H]1O` (single isomer, unassigned) [Example 40.4-1, (R,R or S,S)-4-(4-(1-(1-(bicyclo[1.1.1]pentan-1-yl)-1H-pyrazol-4-yl)-5-chloro-1H-indazol-6-yl)piperidin-1-yl)-4-methyltetrahydrofuran-3-ol]: the half-inhibitory concentration (IC50) under setting [1] was < 0.625 nM.

Consider `O[C@H]1COCC1N1CCC(c2cc3c(cnn3-c3cnn(C45CC(C4)C5)c3)cc2Cl)CC1` (single isomer, unassigned) [Example 42.3, (R,R or S,S)-4-(4-(1-(1-(bicyclo[1.1.1]pentan-1-yl)-1H-pyrazol-4-yl)-5-chloro-1H-indazol-6-yl)piperidin-1-yl)tetrahydrofuran-3-ol], for which, under setting [1], the half-maximal inhibitory concentration (IC50) is < 0.625 nM.

Take `Cn1cc(-n2ncc3cc(Cl)c(C4CCN(C5COC5)CC4F)cc32)cn1` (single isomer, unassigned) [Example 20.2-1, (R,R or S,S)-5-chloro-6-(3-fluoro-1-(oxetan-3-yl)piperidin-4-yl)-1-(1-methyl-1H-pyrazol-4-yl)-1H-indazole]: the IC50 under setting [1] stood at 1.7 nM.

Take `Cn1cc(-n2ncc3cc(Cl)c(C4CCN(S(C)(=O)=O)CC4)cc32)cn1` [Example 17.2]: under setting [1], the IC50 was 27.8 nM.

Molecule `C[C@H]1C[C@H](c2cc3c(cnn3-c3cnn(C)c3)cc2Cl)CCN1C1(C)COC1` [Example 23.5, 5-chloro-6-((2S,4R)-2-methyl-1-(3-methyloxetan-3-yl)piperidin-4-yl)-1-(1-methyl-1H-pyrazol-4-yl)-1H-indazole] returned an IC50 under setting [2] of 1.2 nM.

`Cn1cc(-n2ncc3cc(Cl)c(C4CC45CC5)cc32)cn1` (racemic) [Example 34.2, (R and S)-5-chloro-1-(1-methyl-1H-pyrazol-4-yl)-6-(spiro[2.2]pentan-1-yl)-1H-indazole] showed an IC50 under setting [2] of 35.6 nM.

As for `CC1(N2CCC(c3cc4c(cnn4-c4cnn(C5CC5)c4)cc3C#N)CC2)COC1` [Example 12.3, 1-(1-cyclopropyl-1H-pyrazol-4-yl)-6-(1-(3-methyloxetan-3-yl)piperidin-4-yl)-1H-indazole-5-carbonitrile], the IC50 under setting [2] is < 0.625 nM.

Consider `Cn1cc(-n2ncc3cc(Cl)c(C4CN(C5COC5)C4)cc32)cn1` [Example 31.3, 5-chloro-1-(1-methyl-1H-pyrazol-4-yl)-6-(1-(oxetan-3-yl)azetidin-3-yl)-1H-indazole], for which half-maximal inhibition under setting [2] (IC50) required 2360 nM.

Molecule `CCC1(N2CCC(c3cc4c(cnn4-c4cnn(C5CC5)c4)cc3Cl)CC2)COC1` [Example 13.2, 5-chloro-1-(1-cyclopropyl-1H-pyrazol-4-yl)-6-(1-(3-ethyloxetan-3-yl)piperidin-4-yl)-1H-indazole] came in with an IC50 under setting [2] of 2.7 nM.

On to `CN1CCC(c2cc3c(cnn3-c3cnn(C)c3)cc2Cl)C(F)C1` (single isomer, unassigned) [Example 19.7-1, (R,R or S,S)-5-chloro-6-(3-fluoro-1-methylpiperidin-4-yl)-1-(1-methyl-1H-pyrazol-4-yl)-1H-indazole], for which the half-inhibitory concentration (IC50) under setting [1] came to 3.9 nM.

Regarding `Cn1cc(-n2ncc3cc(Cl)c(C4CCN(CC(F)F)CC4)cc32)cn1` [Example 18.2, 5-chloro-6-(1-(2,2-difluoroethyl)piperidin-4-yl)-1-(1-methyl-1H-pyrazol-4-yl)-1H-indazole], half-maximal inhibition under setting [2] (IC50) required 23.2 nM.

Regarding `COCC12CC(n3cc(-n4ncc5cc(Cl)c(C6CCN(C7(C)COC7)CC6)cc54)cn3)(C1)C2` [Example 7.2-5, 5-chloro-1-(1-(3-(methoxymethyl)bicyclo[1.1.1]pentan-1-yl)-1H-pyrazol-4-yl)-6-(1-(3-methyloxetan-3-yl)piperidin-4-yl)-1H-indazole], the IC50 under setting [2] is < 0.625 nM.

Turning to `N#CC1(c2ccc3cnn(-c4cn(-c5ccccc5)cn4)c3c2)CC12CC2` (centres unmarked) [Example 1.4], the IC50 under setting [1] amounted to 12.9 nM.

With `Cn1cc(-n2ncc3cc(Cl)c(C4CCCN(C5COC5)CC4)cc32)cn1` (single isomer, unassigned) [Example 29.3-2, (R or S)-5-chloro-1-(1-methyl-1H-pyrazol-4-yl)-6-(1-(oxetan-3-yl)azepan-4-yl)-1H-indazole], under setting [2], inhibition was half-maximal at 1.7 nM (IC50).

For `Cn1cc(-n2ncc3cc(Cl)c(C4C5COCC54)cc32)cn1` (stereo not drawn) [Example 32.1, (cis or trans)-6-(3-oxabicyclo[3.1.0]hexan-6-yl)-5-chloro-1-(1-methyl-1H-pyrazol-4-yl)-1H-indazole], the IC50 under setting [1] is 69.2 nM.

Regarding `Cc1nnc(-n2ncc3cc(Cl)c(C4CCN(C5(C)COC5)CC4)cc32)o1` [Example 7.8], the IC50 under setting [1] came to 7.1 nM.

For `CCNC(=O)n1cc(-n2ncc3cc(Cl)c(C4CCN(C5(C)COC5)CC4)cc32)cn1` [Example 8.2, 4-(5-chloro-6-(1-(3-methyloxetan-3-yl)piperidin-4-yl)-1H-indazol-1-yl)-N-ethyl-1H-pyrazole-1-carboxamide], the IC50 under setting [2] was found to be 4.6 nM.

For the molecule `Cn1cc(-n2ncc3cc(Cl)c(C4CCCN(C5COC5)CC4)cc32)cn1` (single isomer, unassigned) [Example 29.3-1, (R or S)-5-chloro-1-(1-methyl-1H-pyrazol-4-yl)-6-(1-(oxetan-3-yl)azepan-4-yl)-1H-indazole], under setting [2], the IC50 was found to be 0.7 nM.

Regarding `Cn1cc(-n2ncc3c(F)c(Cl)c(C4CCN(C5COC5)CC4)cc32)cn1` [Example 35.9, 5-chloro-4-fluoro-1-(1-methyl-1H-pyrazol-4-yl)-6-(1-(oxetan-3-yl)piperidin-4-yl)-1H-indazole], under setting [2], the IC50 was 6.9 nM.

What is called IC50 is the concentration at which inhibition is half-maximal.

The record behind these values is patent US12030872B2, “N-heteroaryl indazole derivatives as LRRK2 inhibitors, pharmaceutical compositions, and uses thereof” (Merck Sharp & Dohme LLC, priority 2018, dated 2024).
